Measurements reported in ChEMBL document CHEMBL1201862, “PubChem BioAssay data set” (2004).
The list shows a part of the results. No stated cut-off is given here; in the data, active = GI50 up to about 1.1 µM and inactive = higher. These assays gave more results; the selection is not random.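 48-hour exposure; five concentrations; linearly interpolated endpoints. GI50: concentration for 50% inhibition of growth.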 For part of these data: Entries with a potency or affinity are not part of this list.

Tests used:
Assay in all cases: NCI tumour cell line growth inhibition, 48 h
[1] = system: SF-539
[2] = system: SK-MEL-28
[3] = system: SK-MEL-2
[4] = system: SK-MEL-5
[5] = system: SK-OV-3
[6] = system: SN12C
[7] = system: SNB-19
[8] = system: SNB-75
[9] = system: SR
[10] = system: SNB-78

CCCCCCCCCCCCCNCC(C)O (stereo not drawn)
GI50 [1]: inactive: 13.3 µM
GI50 [2]: inactive: 13.6 µM
GI50 [3]: inactive: 16 µM
GI50 [4]: inactive: 8.11 µM
GI50 [5]: inactive: 18.4 µM
GI50 [6]: inactive: 14.2 µM
GI50 [7]: inactive: 15.6 µM
GI50 [8]: inactive: 13.2 µM
GI50 [9]: inactive: 3.09 µM

O=[N+]([O-])c1ncn(F)c1[N+](=O)[O-]
GI50 [1]: inactive: > 100 µM
GI50 [2]: inactive: > 100 µM
GI50 [3]: inactive: > 100 µM
GI50 [4]: inactive: > 100 µM
GI50 [5]: inactive: > 100 µM
GI50 [6]: inactive: > 100 µM
GI50 [7]: inactive: > 100 µM
GI50 [8]: inactive: > 100 µM
GI50 [9]: inactive: 59.6 µM

Nc1nc2c(ncn2CCN(CCCl)CCCl)c(=O)[nH]1
GI50 [1]: inactive: > 100 µM
GI50 [2]: inactive: > 100 µM
GI50 [3]: inactive: > 100 µM
GI50 [4]: inactive: > 100 µM
GI50 [6]: inactive: > 100 µM
GI50 [7]: inactive: > 100 µM
GI50 [10]: inactive: > 100 µM
GI50 [9]: inactive: > 100 µM

COc1ccc([N+](=O)[O-])c(C[N+](C)(CCCl)CCCl)c1
GI50 [1]: inactive: > 100 µM
GI50 [2]: inactive: > 100 µM
GI50 [3]: inactive: > 100 µM
GI50 [4]: inactive: > 100 µM
GI50 [5]: inactive: > 100 µM
GI50 [6]: inactive: > 100 µM
GI50 [7]: inactive: > 100 µM
GI50 [8]: inactive: 55.1 µM
GI50 [9]: inactive: 5.7 µM

C[S+](N)(=O)CCC(N)P(=O)(O)O (stereo not drawn)
GI50 [2]: inactive: 73.5 µM
GI50 [3]: inactive: > 100 µM
GI50 [4]: inactive: > 100 µM
GI50 [5]: inactive: > 100 µM
GI50 [6]: inactive: > 100 µM
GI50 [7]: inactive: > 100 µM
GI50 [9]: inactive: > 100 µM

Cc1[nH]c2c(C)c([N+](=O)[O-])c(C)c([N+](=O)[O-])c2c1[N+](=O)[O-]
GI50 [1]: inactive: 10.4 µM
GI50 [2]: inactive: 6.49 µM
GI50 [5]: inactive: 14.4 µM
GI50 [6]: inactive: 11.8 µM
GI50 [7]: inactive: 6.34 µM
GI50 [8]: inactive: 16.3 µM
GI50 [10]: inactive: 14.7 µM
GI50 [9]: inactive: 6.47 µM

Cc1ccc2ccc(C)c(C)c2c1.O=[N+]([O-])c1cc([N+](=O)[O-])c(O)c([N+](=O)[O-])c1O
GI50 [1]: inactive: > 100 µM
GI50 [2]: inactive: > 100 µM
GI50 [3]: inactive: > 100 µM
GI50 [4]: inactive: > 100 µM
GI50 [5]: inactive: > 100 µM
GI50 [7]: inactive: > 100 µM
GI50 [8]: inactive: > 100 µM
GI50 [9]: active: 0.288 µM

ClCCSc1c2ccccc2nc2ccccc12
GI50 [1]: inactive: 4.73 µM
GI50 [2]: inactive: 14.4 µM
GI50 [3]: inactive: 16.2 µM
GI50 [4]: inactive: 17 µM
GI50 [5]: inactive: 26.8 µM
GI50 [6]: inactive: 3.51 µM
GI50 [7]: inactive: 25.8 µM
GI50 [8]: inactive: 20.1 µM
GI50 [9]: inactive: 1.98 µM

O[C@@H]1CCN2CCC[C@H]12
GI50 [1]: inactive: > 100 µM
GI50 [2]: inactive: > 100 µM
GI50 [3]: inactive: > 100 µM
GI50 [4]: inactive: > 100 µM
GI50 [6]: inactive: > 100 µM
GI50 [7]: inactive: > 100 µM
GI50 [8]: inactive: > 100 µM
GI50 [9]: inactive: > 100 µM

O=[N+]([O-])C1([N+](=O)[O-])COCOC1
GI50 [1]: inactive: > 100 µM
GI50 [2]: inactive: > 100 µM
GI50 [3]: inactive: 90.2 µM
GI50 [4]: inactive: 22.1 µM
GI50 [5]: inactive: > 100 µM
GI50 [6]: inactive: > 100 µM
GI50 [7]: inactive: > 100 µM
GI50 [8]: inactive: > 100 µM
GI50 [9]: inactive: 29.8 µM

NNc1nc2nonc2nc1NN
GI50 [1]: inactive: 64.1 µM
GI50 [2]: inactive: > 100 µM
GI50 [3]: inactive: 75 µM
GI50 [4]: inactive: 41.7 µM
GI50 [5]: inactive: > 100 µM
GI50 [6]: inactive: 40.6 µM
GI50 [7]: inactive: 61.5 µM
GI50 [8]: inactive: > 100 µM
GI50 [9]: inactive: 36.6 µM
